Experimental data published in paper PMC5796027, “Thiopurine Drugs Repositioned as Tyrosinase Inhibitors” (International Journal of Molecular Sciences, 2017).

Amino acid sequences for entries named in this document (tags omitted). Residues count along the entry.
UniProt C7FF04, 1-392: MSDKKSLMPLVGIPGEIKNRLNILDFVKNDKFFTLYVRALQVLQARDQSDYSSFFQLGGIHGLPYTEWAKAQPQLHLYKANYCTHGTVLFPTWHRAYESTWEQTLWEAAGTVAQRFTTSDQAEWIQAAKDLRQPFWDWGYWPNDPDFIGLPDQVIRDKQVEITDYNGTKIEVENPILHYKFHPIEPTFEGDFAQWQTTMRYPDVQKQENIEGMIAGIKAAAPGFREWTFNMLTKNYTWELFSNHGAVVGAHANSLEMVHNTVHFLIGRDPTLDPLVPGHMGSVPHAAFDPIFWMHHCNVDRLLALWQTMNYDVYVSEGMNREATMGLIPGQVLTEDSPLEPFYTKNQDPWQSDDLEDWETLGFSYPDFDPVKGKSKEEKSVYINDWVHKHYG

Columns and labels:
human hepatocytes = conditions: up to several tens of μM ref 43; cited from earlier work
[1] = system: B16F10 murine melanoma cells; conditions: up to 50 μM, 48 h
mushroom tyrosinase = mushroom tyrosinase (Agaricus bisporus, UniProt C7FF04); test: Mushroom tyrosinase enzyme inhibition assay (dopachrome absorbance at 475 nm); assay type: biochemical; conditions: −1.37 × (Log10Ki)/HA, HA = number of heavy atoms
Description: Enzyme activity and kinetics experiments with inhibitors—All of the reagents used in this study were purchased from ChemBridge (San Diego, CA, USA), Sigma-Aldrich (St. Louis, MO, USA), or Tokyo Chemical Industry (Tokyo, Japan). The reaction solution for the enzyme assay was prepared with 200 nM mushroom tyrosinase and inhibitors in phosphate-buffered saline (PBS), containing 5% dimethyl sulphoxide and 0.01% (w/v) Triton X-100. After incubating the mixture at 30 °C for 10 min, 500 μM L-tyrosine was added as the substrate. […] The IC50 was evaluated by analysing different concentrations of each inhibitor. The inhibitory constants (Ki) were converted from the IC50 values using the Km obtained from kinetics experiments and substrate concentration based on the Cheng–Prusoff equation [60]. A series of substrates at concentrations of 0.25, 0.33, 0.4, 0.5, 0.67, and 1 mM were used to obtain the respective velocities (V) for enzyme inhibitory kinetics. The concentrations of each inhibitor were varied and comprised the range that included the IC50 value. […]

Nc1nc2nc[nH]c2c(=S)[nH]1 [Thioguanine, thioguanine]
cytotoxicity in human hepatocytes (human hepatocytes): less cytotoxic up to several tens of μM | cytotoxicity (MTT reduction) [1]: without apparent cytotoxicity | LE, ligand efficiency (mushroom tyrosinase): 0.49
